Assay results as given in patent US20040127489A1, “Novel antipsychotic combination therapies and compositions useful therein” (priority 2002, published 2004).

Test system: Wistar rats
Assay: Catalepsy (CAT) measurement on inclined grid in rats
Details: idazoxan 1.5 mg/kg s.c.

Cc1cc2c(s1)Nc1ccccc1N=C2N1CCN(C)CC1 [olanzapine]
CAT rating ± semi-interquartile range (0.5 hrs after olanzapine 2.5 mg/kg i.p., catalepsy score 0-5, 8 rats per group): 1 ± 2.0 | catalepsy compared to vehicle treated controls (olanzapine 2.5 mg/kg i.p., alone or in combination): did not produce any significant catalepsy
